Results taken from article PMC6062497 (2018).
Values joined by “and” are separate entries in the source; they are usually repeats but may differ in a detail not shown here. Equal entries are not always repeated.

Target: TRAIL-R2 (human (endogenous in SK-Mel-3 and …, UniProt O14763 56-440))

B1: GpL-FLAG-conatumumab (antibody, V domains shown)
VH: QVQLQESGPGLVKPSQTLSLTCTVSGGSISSGDYFWSWIRQLPGKGLEWIGHIHNSGTTYYNPSLKSRVTISVDTSKKQFSLRLSSVTAADTAVYYCARDRGGDYYYGMDVWGQGTTVTVSS
VL: EIVLTQSPGTLSLSPGERATLSCRASQGISRSYLAWYQQKPGQAPSLLIYGASSRATGIPDRFSGSGSGTDFTLTISRLEPEDFAVYYCQQFGSSPWTFGQGTKVEIK
Kd: 5.53 nM and 4.86 nM
